Our source for the IC50 values is US20200079786A1, “ANALOGS OF ADAMANTYLUREAS AS SOLUBLE EPOXIDE HYDROLASE INHIBITORS” (UNIVERSITAT DE BARCELONA, priority 2015, published 2020).

Protein sequences, listed by entry. Tags and fused reporters are not part of them.
UniProt P34913, whole entry: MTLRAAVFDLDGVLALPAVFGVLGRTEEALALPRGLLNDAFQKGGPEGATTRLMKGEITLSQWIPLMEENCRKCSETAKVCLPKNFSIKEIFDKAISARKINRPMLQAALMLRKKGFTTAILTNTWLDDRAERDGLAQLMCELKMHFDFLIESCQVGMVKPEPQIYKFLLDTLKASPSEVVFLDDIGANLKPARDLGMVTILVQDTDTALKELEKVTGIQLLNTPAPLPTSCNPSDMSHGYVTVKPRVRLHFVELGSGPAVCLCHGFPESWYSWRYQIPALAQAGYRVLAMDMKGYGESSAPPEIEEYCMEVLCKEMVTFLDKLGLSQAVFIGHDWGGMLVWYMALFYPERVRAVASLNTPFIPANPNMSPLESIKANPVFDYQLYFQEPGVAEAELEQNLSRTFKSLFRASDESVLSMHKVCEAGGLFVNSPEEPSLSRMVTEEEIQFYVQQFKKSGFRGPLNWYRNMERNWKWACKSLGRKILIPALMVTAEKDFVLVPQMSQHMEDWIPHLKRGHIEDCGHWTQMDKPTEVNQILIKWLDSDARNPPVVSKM

For the assay, the target named is T1, recombinant human sEH (Homo sapiens, UniProt P34913).
T1 construct: purchased Cayman Chemical 10011669
As to the kind of experiment: In vitro determination of sEH inhibition activity (fluorescent assay, PHOME substrate). The format is biochemical. As to conditions: mean ± Standard Error, min. three replicates, read-out: IC50 (nM) ± SE, sEH inhibition activity. How it is done: 3-(Phenyl-oxiranyl)-acetic acid cyano-(6-methoxy-naphthalen-2-yl)-methyl ester (PHOME; from Cayman Chemical, item number 10009134; CAS 1028430-42-3); cf. N. M. Wolf et al., Anal. Biochem. 2006, vol. 355, pp. 71-80.
Solutions: • Assay buffer: Bis/Tris HCl 25 mM pH 7.0 containing 0.1 mg/mL of bovine serum albumin (BSA). • PHOME at 200 μM in DMSO. • Solution of recombinant human sEH (Cayman Chemical, item number 10011669), diluted with assay buffer. • Inhibitors dissolved in DMSO at appropriated concentrations.
In a black 96-well plate (Greiner Bio-One, item number 655900), fill the background wells with 90 μL and the positive control and inhibitor wells with 85 μL of assay buffer. Add 5 μL of DMSO to background and positive control wells, and then add 5 μL of inhibitor solution in inhibitor wells. Add 5 μL of the solution of hsEH to the positive control and inhibitor wells and mix several time. Prepare a 1/21 dilution of the solution of PHOME with assay buffer according to final volume required, and then add 105 μL of each well. Shake carefully the plate for 10 seconds and incubate for 5 minutes at room temperature. […] Results were obtained by regression analysis from at least three data points in a linear region of the curve. IC50 values are average of minimum three independent replicates.

For the compound `O=C(Nc1ccc(F)c(F)c1F)NC12CC3CC(CC(C3)C1)C2` [Std 1, 1-(Adamantan-1-yl)-3-(2,3,4-trifluorophenyl)urea, reference compound], the concentration for half-maximal inhibition (IC50) is 7.74 nM. The figure for `O=C(Nc1ccc(F)c(F)c1F)NC12CC3CC(CC(C3)O1)C2` [Ia, 1-(2-oxaadamantan-1-yl)-3-(2,3,4-trifluorophenyl)urea] is 2.58 nM.
